Measurements published in patent US10112926B2 (priority 2014, dated 2018).
pIC50: −log10 of the molar value. Structures can show the parent of a compound that is named as a salt.

Protein sequences, listed by entry. Tags and fused reporters are not part of them. Lines headed by an entry give the natural chain unless they say otherwise; changes in a name come on top.
UniProt P42338: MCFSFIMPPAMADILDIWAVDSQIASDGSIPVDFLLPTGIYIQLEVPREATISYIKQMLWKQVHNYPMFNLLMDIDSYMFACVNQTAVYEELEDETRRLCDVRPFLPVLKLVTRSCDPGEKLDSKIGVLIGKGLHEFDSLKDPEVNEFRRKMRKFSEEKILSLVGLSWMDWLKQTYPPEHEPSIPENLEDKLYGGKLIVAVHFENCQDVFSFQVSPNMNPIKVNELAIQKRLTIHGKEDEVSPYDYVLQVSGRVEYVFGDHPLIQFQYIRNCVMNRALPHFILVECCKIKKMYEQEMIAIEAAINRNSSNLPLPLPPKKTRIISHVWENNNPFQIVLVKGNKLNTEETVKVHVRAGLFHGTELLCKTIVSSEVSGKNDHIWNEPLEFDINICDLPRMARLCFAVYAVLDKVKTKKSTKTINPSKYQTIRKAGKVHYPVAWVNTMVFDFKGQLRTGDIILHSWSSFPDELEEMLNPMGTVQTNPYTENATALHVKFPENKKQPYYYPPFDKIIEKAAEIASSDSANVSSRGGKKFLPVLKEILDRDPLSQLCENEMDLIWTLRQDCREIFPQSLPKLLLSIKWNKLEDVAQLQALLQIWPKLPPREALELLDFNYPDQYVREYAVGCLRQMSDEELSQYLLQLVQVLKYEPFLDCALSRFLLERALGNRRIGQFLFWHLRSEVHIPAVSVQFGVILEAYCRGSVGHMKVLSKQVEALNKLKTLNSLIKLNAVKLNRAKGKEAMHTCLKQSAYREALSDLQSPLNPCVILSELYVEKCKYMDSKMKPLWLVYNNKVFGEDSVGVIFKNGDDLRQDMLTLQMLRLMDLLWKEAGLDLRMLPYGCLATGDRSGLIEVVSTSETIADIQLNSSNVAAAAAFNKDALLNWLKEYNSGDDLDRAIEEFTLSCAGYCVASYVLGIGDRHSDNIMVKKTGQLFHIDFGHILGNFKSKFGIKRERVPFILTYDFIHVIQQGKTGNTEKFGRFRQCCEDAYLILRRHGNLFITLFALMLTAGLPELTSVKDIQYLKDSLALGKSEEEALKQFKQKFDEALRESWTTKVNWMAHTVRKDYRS
UniProt P42336, whole entry, looked up: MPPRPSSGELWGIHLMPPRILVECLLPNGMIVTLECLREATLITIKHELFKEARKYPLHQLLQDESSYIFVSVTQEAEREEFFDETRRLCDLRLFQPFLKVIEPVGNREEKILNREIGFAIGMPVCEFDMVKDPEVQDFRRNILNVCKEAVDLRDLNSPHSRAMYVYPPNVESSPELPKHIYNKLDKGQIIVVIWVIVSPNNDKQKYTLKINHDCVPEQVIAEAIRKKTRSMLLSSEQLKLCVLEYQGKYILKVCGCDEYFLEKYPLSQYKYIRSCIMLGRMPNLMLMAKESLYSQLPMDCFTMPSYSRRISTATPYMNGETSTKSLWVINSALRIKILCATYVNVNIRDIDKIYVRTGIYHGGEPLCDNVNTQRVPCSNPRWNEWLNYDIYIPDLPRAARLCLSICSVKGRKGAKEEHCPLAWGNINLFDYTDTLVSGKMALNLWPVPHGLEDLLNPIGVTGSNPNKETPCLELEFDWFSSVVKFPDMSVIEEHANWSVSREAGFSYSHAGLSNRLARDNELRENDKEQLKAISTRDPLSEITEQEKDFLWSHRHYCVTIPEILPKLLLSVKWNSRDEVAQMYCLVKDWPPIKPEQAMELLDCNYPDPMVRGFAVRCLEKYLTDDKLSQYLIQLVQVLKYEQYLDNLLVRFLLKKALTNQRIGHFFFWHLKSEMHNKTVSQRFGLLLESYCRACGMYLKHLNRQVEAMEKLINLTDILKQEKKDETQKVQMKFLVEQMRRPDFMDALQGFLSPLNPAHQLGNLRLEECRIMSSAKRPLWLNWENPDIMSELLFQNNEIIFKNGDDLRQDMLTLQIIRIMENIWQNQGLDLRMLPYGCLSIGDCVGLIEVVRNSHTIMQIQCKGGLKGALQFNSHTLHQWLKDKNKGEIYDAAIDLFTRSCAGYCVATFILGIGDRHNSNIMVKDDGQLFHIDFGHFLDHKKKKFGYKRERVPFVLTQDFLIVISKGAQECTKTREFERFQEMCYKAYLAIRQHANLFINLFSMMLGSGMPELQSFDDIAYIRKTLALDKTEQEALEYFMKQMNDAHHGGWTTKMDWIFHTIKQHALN

Tests used:
PI 3-kinase beta = PI 3-kinase beta (Homo sapiens (Human), UniProt P42338); conditions: read-out: Assay B PI3Kβ IC50
[1] = biological target: PI 3-kinase beta (Rat-1 pBABEpuro Myr-HA-hp110 beta cells) (Homo sapiens (Human), UniProt P42338); assay: cell-based; conditions: Assay I PI3Kβ IC50
PI 3-kinase alpha = PI 3-kinase alpha (Homo sapiens (Human), UniProt P42336); conditions: read-out: Assay A PI3Kα IC50
[2] = biological target: PI 3-kinase alpha (Rat-1 pBABEpuro Myr-HA-hp110 alpha cells) (Homo sapiens (Human), UniProt P42336); assay: cell-based; conditions: Assay H PI3Kα IC50

## Cc1ncc(-c2cc(-c3cc(S(=O)(=O)NCCC(C)(C)O)ccc3C)cnc2N)o1 [Example 13, 3-[6-Amino-5-(2-methyl-oxazol-5-yl)-pyridin-3-yl]-N-(3-hydroxy-3-methyl-butyl)-4-methyl-benzenesulfonamide, hydrochloride salt]
PI 3-kinase beta
  pIC50: 6.07
[1]
  pIC50: < 5.00
PI 3-kinase alpha
  pIC50: 6.85

## Cc1ccc(S(=O)(=O)N[C@H]2CC[C@H](O)CC2)cc1-c1cnc(N)c(-c2cnn(CC(F)(F)F)c2)c1 [Example 4.2, trans 3-(6-Amino-5-(1-(2,2,2-trifluoroethyl)-1H-pyrazol-4-yl)pyridin-3-yl)-N-(4-hydroxycyclohexyl)-4-methyl-benzenesulfonamide]
PI 3-kinase beta
  pIC50: 6.05
[2]
  pIC50: < 5.00
[1]
  pIC50: 5.31
PI 3-kinase alpha
  pIC50: 6.68

## Cc1nc(-c2cc(-c3cc(S(=O)(=O)N[C@H]4CC[C@H](O)CC4)ccc3C)cnc2N)cs1 [Example 92, 3-(6-Amino-5-(2-methylthiazol-4-yl)pyridin-3-yl)-N-((1r,4r)-4-hydroxycyclohexyl)-4-methylbenzenesulfonamide]
PI 3-kinase beta
  pIC50: 5.72
[2]
  pIC50: < 5.00
[1]
  pIC50: < 5.00
PI 3-kinase alpha
  pIC50: 5.80

## Cc1noc(-c2cc(-c3cc(S(=O)(=O)NCCC4(O)CCCC4)ccc3C)cnc2N)n1 [Example 37.11, 3-(6-Amino-5-(3-methyl-1,2,4-oxadiazol-5-yl)pyridin-3-yl)-N-(2-(1-hydroxycyclopentyl)ethyl)-4-methylbenzenesulfonamide]
PI 3-kinase beta
  pIC50: 5.89
[2]
  pIC50: 6.05
[1]
  pIC50: 5.60
PI 3-kinase alpha
  pIC50: 6.72

## Cc1noc(-c2cc(-c3cc(S(=O)(=O)NCC4(CO)COC4)ccc3C)cnc2N)n1 [Example 52, 3-(6-Amino-5-(3-methyl-1,2,4-oxadiazol-5-yl)pyridin-3-yl)-N-((3-(hydroxymethyl)oxetan-3-yl)methyl)-4-methylbenzenesulfonamide]
PI 3-kinase beta
  pIC50: < 5.00
[2]
  pIC50: < 5.00
[1]
  pIC50: < 5.00
PI 3-kinase alpha
  pIC50: 5.96

## Cc1ccc(S(=O)(=O)N[C@H]2CC[C@H](O)CC2)cc1-c1cnc(N)c(-c2nc(CC(F)(F)F)no2)c1 [Example 78, trans-3-(6-Amino-5-(3-(2,2,2-trifluoroethyl)-1,2,4-oxadiazol-5-yl)pyridin-3-yl)-N-((1r,4r)-4-hydroxycyclohexyl)-4-methylbenzenesulfonamide]
[2]
  pIC50: < 5.00

## Cc1noc(-c2cc(-c3cc(S(=O)(=O)N4CC[C@H](O)C4)ccc3C)cnc2N)n1 [Example 37.32, (S)-1-((3-(6-Amino-5-(3-methyl-1,2,4-oxadiazol-5-yl)pyridin-3-yl)-4-methylphenyl)sulfonyl)pyrrolidin-3-ol hydrochloride]
PI 3-kinase beta
  pIC50: < 5.00
[2]
  pIC50: < 5.00
[1]
  pIC50: < 5.00
PI 3-kinase alpha
  pIC50: 5.96

## Cc1noc(-c2cc(-c3cc(S(=O)(=O)NC4CC(F)(F)C4)ccc3C)cnc2N)n1 [Example 37.17, 3-(6-Amino-5-(3-methyl-1,2,4-oxadiazol-5-yl)pyridin-3-yl)-N-(3,3-difluorocyclobutyl)-4-methylbenzenesulfonamide]
PI 3-kinase beta
  pIC50: 5.55
[2]
  pIC50: < 5.00
[1]
  pIC50: < 5.00
PI 3-kinase alpha
  pIC50: 6.33

## Cc1noc(-c2cc(-c3cc(S(=O)(=O)NCC4(O)COC4)ccc3C)cnc2N)n1 [Example 56, 3-(6-Amino-5-(3-methyl-1,2,4-oxadiazol-5-yl)pyridin-3-yl)-N-((3-hydroxyoxetan-3-yl)methyl)-4-methylbenzenesulfonamide]
PI 3-kinase beta
  pIC50: 5.20
[2]
  pIC50: < 5.00
[1]
  pIC50: 5.12
PI 3-kinase alpha
  pIC50: 5.89

## Cc1cc(-c2cc(-c3cc(S(=O)(=O)NCC4(CO)COC4)ccc3C)cnc2N)on1 [Example 50, 3-(6-Amino-5-(3-methylisoxazol-5-yl)pyridin-3-yl)-N-((3-(hydroxymethyl)oxetan-3-yl)methyl)-4-methylbenzenesulfonamide]
PI 3-kinase beta
  pIC50: 5.36
[2]
  pIC50: < 5.00
[1]
  pIC50: < 5.00
PI 3-kinase alpha
  pIC50: 5.80

## Cc1cc(-c2cc(-c3cc(S(=O)(=O)NCC4(O)CCCC4)ccc3C)cnc2N)on1 [Example 53, 3-(6-Amino-5-(3-methylisoxazol-5-yl)pyridin-3-yl)-N-((1-hydroxycyclopentyl)methyl)-4-methylbenzenesulfonamide]
PI 3-kinase beta
  pIC50: 5.66
[2]
  pIC50: < 5.00
[1]
  pIC50: 5.22
PI 3-kinase alpha
  pIC50: 6.17

## Cc1nc(-c2cc(-c3cc(S(=O)(=O)NCCC(C)(C)O)ccc3C)cnc2N)cs1 [Example 93, 3-(6-Amino-5-(2-methylthiazol-4-yl)pyridin-3-yl)-N-(3-hydroxy-3-methylbutyl)-4-methylbenzenesulfonamide]
PI 3-kinase beta
  pIC50: 5.32
[2]
  pIC50: < 5.00
[1]
  pIC50: < 5.00
PI 3-kinase alpha
  pIC50: 6.06

## Cc1cc(-c2cc(-c3cc(S(=O)(=O)NCC4(O)CCCCC4)ccc3C)cnc2N)on1 [Example 37.9]
PI 3-kinase beta
  pIC50: 6.33
[2]
  pIC50: 5.63
[1]
  pIC50: 5.49
PI 3-kinase alpha
  pIC50: 6.82

## Cc1noc(-c2cc(-c3cc(S(=O)(=O)NOC(C)(C)C)ccc3C)cnc2N)n1 [Example 47, 3-(6-Amino-5-(3-methyl-1,2,4-oxadiazol-5-yl)pyridin-3-yl)-N-(tert-butoxy)-4-methylbenzenesulfonamide]
PI 3-kinase beta
  pIC50: 6.05
[2]
  pIC50: < 5.00
[1]
  pIC50: < 5.00
PI 3-kinase alpha
  pIC50: 7.00

## Cc1noc(-c2cc(-c3cc(S(=O)(=O)NOCC(C)(C)O)ccc3C)cnc2N)n1 [Example 11, 3-[6-Amino-5-(3-methyl-[1,2,4]oxadiazol-5-yl)-pyridin-3-yl]-N-(2-hydroxy-2-methyl-propoxy)-4-methyl-benzenesulfonamide, hydrochloride salt]
PI 3-kinase beta
  pIC50: 6.54
[2]
  pIC50: 6.82
[1]
  pIC50: 6.14
PI 3-kinase alpha
  pIC50: 7.15

## Cc1ccc(S(=O)(=O)NCC(C)(C)O)cc1-c1cnc(N)c(-c2cc(C(=O)N3CCOCC3)no2)c1 [Example 42, 3-(6-Amino-5-(3-(morpholine-4-carbonyl)isoxazol-5-yl)pyridin-3-yl)-N-(2-hydroxy-2-methylpropyl)-4-methylbenzenesulfonamide]
PI 3-kinase beta
  pIC50: < 5.00
[2]
  pIC50: < 5.00
[1]
  pIC50: < 5.00
PI 3-kinase alpha
  pIC50: 6.05

## Cc1cc(-c2cc(-c3cc(S(=O)(=O)NCCC(C)(C)O)ccc3C)cnc2N)ccn1 [Example 16, 3-(2-Amino-2′-methyl-[3,4′]bipyridinyl-5-yl)-N-(3-hydroxy-3-methyl-butyl)-4-methyl-benzenesulfonamide]
PI 3-kinase beta
  pIC50: 5.20
[2]
  pIC50: 5.62
[1]
  pIC50: 5.08
PI 3-kinase alpha
  pIC50: 7.00

## Cc1ccc(S(=O)(=O)NCC(C)(C)O)cc1-c1cnc(N)c(-c2cnn(C)n2)c1 [Example 4.4, 3-(6-amino-5-(2-methyl-2H-1,2,3-triazol-4-yl)pyridin-3-yl)-N-(2-hydroxy-2-methylpropyl)-4-methylbenzenesulfonamide hydrochloride]
PI 3-kinase beta
  pIC50: 5.53
[2]
  pIC50: < 5.00
[1]
  pIC50: < 5.00
PI 3-kinase alpha
  pIC50: 6.25

## Cc1ccc(S(=O)(=O)NCC(C)(C)O)cc1-c1cnc(N)c(-c2nc(C(F)F)no2)c1 [Example 71, 3-(6-Amino-5-(3-(difluoromethyl)-1,2,4-oxadiazol-5-yl)pyridin-3-yl)-N-(2-hydroxy-2-methylpropyl)-4-methylbenzenesulfonamide hydrochloride]
PI 3-kinase beta
  pIC50: < 5.00
[2]
  pIC50: < 5.19
[1]
  pIC50: < 5.52
PI 3-kinase alpha
  pIC50: 5.59

## Cc1ncc(-c2cc(-c3cc(S(=O)(=O)NCC(C)(C)O)ccc3C)cnc2N)s1 [Example 15, 3-[6-Amino-5-(2-methyl-thiazol-5-yl)-pyridin-3-yl]-N-(2-hydroxy-2-methyl-propyl)-4-methyl-benzenesulfonamide]
PI 3-kinase beta
  pIC50: 5.38
[1]
  pIC50: 5.05

## Cc1cc(-c2cc(-c3cc(S(=O)(=O)N[C@H]4CC[C@H](O)CC4)ccc3C)cnc2N)on1 [Example 5.4, trans 3-(6-Amino-5-(3-methylisoxazol-5-yl)pyridin-3-yl)-N-(-4-hydroxycyclohexyl)-4-methylbenzenesulfon-amide hydrochloride]
PI 3-kinase beta
  pIC50: 5.51
[1]
  pIC50: < 5.00

## Cc1noc(-c2cc(-c3cc(S(=O)(=O)NCC4CCOC4)ccc3C)cnc2N)n1 (centres unmarked) [Example 29, 3-(6-Amino-5-(3-methyl-1,2,4-oxadiazol-5-yl)pyridin-3-yl)-4-methyl-N-((tetrahydrofuran-3-yl)methyl)benzenesulfonamide]
[1]
  pIC50: < 5.00

## CCN1CCC[C@@H]1CNS(=O)(=O)c1ccc(C)c(-c2cnc(N)c(-c3cc(C)no3)c2)c1 [Example 37.27, (R)-3-(6-Amino-5-(3-methylisoxazol-5-yl)pyridin-3-yl)-N-((1-ethylpyrrolidin-2-yl)methyl)-4-methylbenzenesulfonamide]
PI 3-kinase beta
  pIC50: 5.57
[1]
  pIC50: 5.24
PI 3-kinase alpha
  pIC50: 5.85

## Cc1ncc(-c2cc(-c3cc(S(=O)(=O)N[C@H]4CC[C@H](O)CC4)ccc3C)cnc2N)o1 [Example 98, 3-(6-amino-5-(2-methyloxazol-5-yl)pyridin-3-yl)-N-((1r,4r)-4-hydroxycyclohexyl)-4-methylbenzenesulfonamide hydrochloride]
PI 3-kinase beta
  pIC50: 5.77
[1]
  pIC50: 5.59

## Cc1cnc(-c2cc(-c3cc(S(=O)(=O)NCCC(C)(C)O)ccc3C)cnc2N)s1 [Example 91, 3-(6-Amino-5-(5-methylthiazol-2-yl)pyridin-3-yl)-N-(3-hydroxy-3-methylbutyl)-4-methylbenzenesulfonamide]
PI 3-kinase beta
  pIC50: 6.66
[2]
  pIC50: 5.36
[1]
  pIC50: 5.61

## Cc1ccc(S(=O)(=O)NCC(C)(C)O)cc1-c1cnc(N)c(-n2cncn2)c1 [Example 81, 3-(6-Amino-5-(1H-1,2,4-triazol-1-yl)pyridin-3-yl)-N-(2-hydroxy-2-methylpropyl)-4-methylbenzenesulfonamide hydrochloride]
PI 3-kinase beta
  pIC50: 5.20
[1]
  pIC50: 5.38

## Cc1noc(-c2cc(-c3cc(S(=O)(=O)NCC(C)(C)O)ccc3C)cnc2N)n1 [Example 10, 3-(6-Amino-5-(3-methyl-1,2,4-oxadiazol-5-yl)pyridin-3-yl)-N-(2-hydroxy-2-methylpropyl)-4-methylbenzenesulfonamide, hydrochloride salt]
PI 3-kinase beta
  pIC50: 5.37
[1]
  pIC50: 5.39
